Data from PubChem BioAssay AID1481 (The Scripps Research Institute Molecular Screening Center, 2009).
The entries are a selection whose mix differs from that of the whole data set. The source made the active and inactive calls. Cut-off read from the data, not from the text of the source: active = inhibition above about 15%; inactive = the rest.

By UniProt entry, the sequences of proteins in these tests, tags left out.
UniProt P55072, whole entry: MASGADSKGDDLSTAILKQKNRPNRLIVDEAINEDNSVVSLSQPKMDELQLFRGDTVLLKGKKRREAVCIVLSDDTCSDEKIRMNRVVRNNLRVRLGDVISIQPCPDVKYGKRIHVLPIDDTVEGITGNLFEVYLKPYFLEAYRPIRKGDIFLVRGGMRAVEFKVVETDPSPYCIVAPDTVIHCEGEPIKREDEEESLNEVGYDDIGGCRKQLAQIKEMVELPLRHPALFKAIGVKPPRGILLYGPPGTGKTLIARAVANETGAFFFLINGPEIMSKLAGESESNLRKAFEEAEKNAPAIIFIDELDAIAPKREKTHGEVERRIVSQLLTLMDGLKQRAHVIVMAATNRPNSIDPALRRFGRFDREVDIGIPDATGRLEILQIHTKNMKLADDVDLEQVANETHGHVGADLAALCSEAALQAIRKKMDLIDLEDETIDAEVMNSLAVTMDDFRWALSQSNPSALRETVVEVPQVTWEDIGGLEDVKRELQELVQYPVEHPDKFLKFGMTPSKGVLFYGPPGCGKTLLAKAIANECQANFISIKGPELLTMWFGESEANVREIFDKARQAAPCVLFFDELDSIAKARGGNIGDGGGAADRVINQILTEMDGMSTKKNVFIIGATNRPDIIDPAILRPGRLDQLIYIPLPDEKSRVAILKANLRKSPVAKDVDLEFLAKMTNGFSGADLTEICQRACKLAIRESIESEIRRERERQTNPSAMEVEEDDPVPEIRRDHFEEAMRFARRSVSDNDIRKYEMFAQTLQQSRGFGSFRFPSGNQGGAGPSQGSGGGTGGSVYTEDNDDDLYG

Molecular target: Transitional endoplasmic reticulum ATPase (Homo sapiens) (UniProt P55072)
Assay: inhibitors of human p97 ATPase, primary screen, biochemical (AID 1481);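 note: 0% = DMSO vehicle and 100% = wells lacking enzyme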
Conditions: recombinant p97 ATPase, Kinase-Glo ATP luminescence, 3 h; at 8 µM; stronger effect = higher value

**Q.** How did the inhibition turn out when `COc1ccccc1OP(C)(=O)Nc1cccc(Br)c1` (stereo not drawn) was run?
**A.** active: 14.8%

**Q.** `CCOC(=O)c1ccc(NP(C)(=O)Oc2cc(C)cc(C)c2)cc1` (stereo not drawn) was tested. Which inhibition did it give?
**A.** inactive: -3.53%

**Q.** For `Cc1cc(C)cc(OP(C)(=O)Nc2ccc(C)cc2C)c1` (stereo not drawn), which inhibition is on record?
**A.** inactive: -3.1%

**Q.** Which inhibition does the source give for `Cc1ccc(C)c(NP(C)(=O)Oc2ccccc2)c1` (stereo not drawn) here?
**A.** inactive: -2.37%

**Q.** How did the inhibition turn out when `Cc1cc(C)cc(OP(C)(=O)Nc2ccccn2)c1` (stereo not drawn) was run?
**A.** inactive: 1.11%

**Q.** For `CP(=O)(Nc1cccc(Br)c1)Oc1ccccc1` (stereo not drawn), which inhibition is on record?
**A.** inactive: 0.03%

**Q.** For `O=C(O)c1cccc(Nc2c([N+](=O)[O-])cc([N+](=O)[O-])cc2[N+](=O)[O-])c1`, which inhibition is on record?
**A.** inactive: 6.75%

**Q.** With `CC1=NCCc2c1[nH]c1ccccc21.O=[N+]([O-])c1cc([N+](=O)[O-])c(O)c([N+](=O)[O-])c1` as the compound, how does the inhibition read?
**A.** inactive: -5.56%

**Q.** For `CCOC(=O)C(CC)C1=NC(C)(C)Cc2ccccc21.O=[N+]([O-])c1cc([N+](=O)[O-])c(O)c([N+](=O)[O-])c1` (stereo not drawn), which inhibition is on record?
**A.** inactive: 0.44%

**Q.** With `O=[N+]([O-])c1cc([N+](=O)[O-])c(Nc2nnnn2CCO)c([N+](=O)[O-])c1` as the compound, how does the inhibition read?
**A.** inactive: 6.33%

**Q.** `COc1ccccc1OP(C)(=O)Nc1c(C)cccc1C` (stereo not drawn) was tested. Which inhibition did it give?
**A.** inactive: -3.46%

**Q.** How did the inhibition turn out when `CN1CCCCC1COC(=O)C1(O)c2ccccc2CCc2ccccc21` (stereo not drawn) was run?
**A.** inactive: 3.65%

**Q.** How did the inhibition turn out when `CCCOc1ccc(NP(C)(=O)Oc2ccc(Cl)cc2)cc1` (stereo not drawn) was run?
**A.** inactive: -0.5%

**Q.** Which inhibition does the source give for `CP(=O)(Nc1ccc(SC(F)(F)F)cc1)Oc1ccccc1` (stereo not drawn) here?
**A.** inactive: -1.4%

**Q.** With `O=[N+]([O-])c1cc([N+](=O)[O-])c(-n2nnc3ccccc32)c([N+](=O)[O-])c1` as the compound, how does the inhibition read?
**A.** inactive: 0.83%

**Q.** For `Cc1nc2ccc3ccccc3c2s1.O=[N+]([O-])c1cc([N+](=O)[O-])c(O)c([N+](=O)[O-])c1`, which inhibition is on record?
**A.** inactive: 10.2%

**Q.** With `CP(=O)(Oc1ccccc1)OC(c1ccccc1)C(F)(F)F` (stereo not drawn) as the compound, how does the inhibition read?
**A.** inactive: -4.01%

**Q.** Which inhibition does the source give for `Cc1cccc(C)c1OP(C)(=O)Nc1ccc(SC(F)(F)F)cc1` (stereo not drawn) here?
**A.** inactive: 3.8%

**Q.** Which inhibition does the source give for `CP(=O)(Nc1ccc(SC(F)(F)F)cc1)Oc1ccc(Cl)cc1` (stereo not drawn) here?
**A.** inactive: -7.79%

**Q.** For `Cc1cc(C)cc(OP(C)(=O)Nc2ccc(SC(F)(F)F)cc2)c1` (stereo not drawn), which inhibition is on record?
**A.** inactive: -8.16%

**Q.** Which inhibition does the source give for `CP(=O)(NC(=O)Nc1ccccc1)Oc1ccccc1` (stereo not drawn) here?
**A.** inactive: -2.02%

**Q.** With `CCc1ccc(OP(C)(=O)N2CCN(c3ccc([N+](=O)[O-])cc3)CC2)cc1` (stereo not drawn) as the compound, how does the inhibition read?
**A.** inactive: -9.84%

**Q.** Which inhibition does the source give for `CCOC(=O)c1ccc(NP(C)(=O)Oc2ccc(OC)cc2)cc1` (stereo not drawn) here?
**A.** inactive: -0.29%

**Q.** For `CCOP(C)(=S)SCC(=O)NC(C)C(=O)O` (stereo not drawn), which inhibition is on record?
**A.** inactive: -7.21%

**Q.** How did the inhibition turn out when `CP(=O)(Nc1ccccn1)Oc1ccc(Cl)cc1` (stereo not drawn) was run?
**A.** inactive: 0.85%

**Q.** How did the inhibition turn out when `CP(=S)(Nn1cnnc1)Oc1ccccc1` (stereo not drawn) was run?
**A.** inactive: -0.61%

**Q.** For `CP(=O)(Nc1ccccc1Br)Oc1ccccc1` (stereo not drawn), which inhibition is on record?
**A.** inactive: -5.69%

**Q.** `COc1ccccc1OP(C)(=O)Nc1ccccc1` (stereo not drawn) was tested. Which inhibition did it give?
**A.** inactive: 0.75%

**Q.** `O=[N+]([O-])c1ccc2c(c1)C=Nc1ccccc1O2` was tested. Which inhibition did it give?
**A.** inactive: 1.21%

**Q.** `Cc1cccc(C)c1OP(C)(N)=O` (stereo not drawn) was tested. Which inhibition did it give?
**A.** inactive: 2.73%

**Q.** How did the inhibition turn out when `CC(C)(C)c1ccc(OP(C)(=O)Nc2ccc(SC(F)(F)F)cc2)cc1` (stereo not drawn) was run?
**A.** inactive: 3.23%

**Q.** Which inhibition does the source give for `Cc1ccc(NP(C)(=O)Oc2ccccc2)c(C)c1` (stereo not drawn) here?
**A.** inactive: 1.33%

**Q.** How did the inhibition turn out when `COc1ccccc1OP(C)(=O)Nc1ccc(C)cc1` (stereo not drawn) was run?
**A.** inactive: -2.41%

**Q.** Which inhibition does the source give for `CCOC(=O)c1ccc(NP(C)(=O)Oc2ccccc2)cc1` (stereo not drawn) here?
**A.** inactive: 0.77%

**Q.** With `Cc1cc(C)cc(OP(C)(N)=O)c1` (stereo not drawn) as the compound, how does the inhibition read?
**A.** inactive: -5.21%

**Q.** How did the inhibition turn out when `COc1ccc(OP(C)(=O)Nc2cccc(F)c2)cc1` (stereo not drawn) was run?
**A.** inactive: 1.06%

**Q.** With `COc1ccccc1OP(C)(=O)Nc1cc(Cl)ccc1C` (stereo not drawn) as the compound, how does the inhibition read?
**A.** inactive: -5.78%

**Q.** With `CCN(CC)CCCOC(=O)C(O)(c1ccccc1)c1ccccc1` as the compound, how does the inhibition read?
**A.** inactive: 7.41%

**Q.** How did the inhibition turn out when `COc1ccccc1OP(C)(=O)Nc1ccc(Br)cc1` (stereo not drawn) was run?
**A.** inactive: -2.8%

**Q.** Which inhibition does the source give for `COc1ccc(OP(C)(=O)Nc2ccccn2)cc1` (stereo not drawn) here?
**A.** inactive: -0.86%

**Q.** How did the inhibition turn out when `CN(C)CCOC(=O)C(O)(c1ccccc1)C1CCCC1` (stereo not drawn) was run?
**A.** inactive: -0.95%

**Q.** For `Cc1c(NP(C)(=O)Oc2ccc(C(C)C)cc2)c(=O)n(-c2ccccc2)n1C` (stereo not drawn), which inhibition is on record?
**A.** inactive: 0.29%

**Q.** With `O=[N+]([O-])c1cc([N+](=O)[O-])c(Nc2ccccn2)c([N+](=O)[O-])c1` as the compound, how does the inhibition read?
**A.** inactive: 4.22%

**Q.** With `COc1ccccc1OP(C)(=O)Nc1ccc(C)cc1C` (stereo not drawn) as the compound, how does the inhibition read?
**A.** inactive: -6.28%

**Q.** Which inhibition does the source give for `CP(=O)(Nc1ccccn1)Oc1ccccc1` (stereo not drawn) here?
**A.** inactive: 1.13%

**Q.** With `CCc1ccc(OP(C)(=O)O)cc1` as the compound, how does the inhibition read?
**A.** inactive: -2.21%

**Q.** With `Cc1cc(C)cc(OP(C)(=O)Nc2cccc(C(F)(F)F)c2)c1` (stereo not drawn) as the compound, how does the inhibition read?
**A.** inactive: 0.38%

**Q.** For `COc1ccccc1OP(C)(=O)Nc1ccc(C)c(C)c1` (stereo not drawn), which inhibition is on record?
**A.** inactive: 0.07%

**Q.** `COc1ccc(OP(C)(=O)Nc2ccccc2Br)cc1` (stereo not drawn) was tested. Which inhibition did it give?
**A.** inactive: 1.26%

**Q.** With `Cc1nc2ccc3ccccc3c2o1.O=[N+]([O-])c1cc([N+](=O)[O-])c(O)c([N+](=O)[O-])c1` as the compound, how does the inhibition read?
**A.** inactive: 5.63%

**Q.** Which inhibition does the source give for `CP(=O)(Nc1ccc(Cl)cc1Cl)Oc1ccccc1` (stereo not drawn) here?
**A.** inactive: -1.27%

**Q.** How did the inhibition turn out when `CP(=O)(OCCOc1ccccc1)OCCOc1ccccc1` was run?
**A.** inactive: -4.36%

**Q.** `CCOC(=O)c1ccc(NP(C)(=O)Oc2ccc(Cl)cc2)cc1` (stereo not drawn) was tested. Which inhibition did it give?
**A.** inactive: 4.19%

**Q.** With `CP(=O)(OC12CC3CC(CC(C3)C1)C2)OC12CC3CC(CC(C3)C1)C2` as the compound, how does the inhibition read?
**A.** inactive: -6.73%

**Q.** For `COc1ccc(OP(C)(=O)Nc2ccc(Br)cc2)cc1` (stereo not drawn), which inhibition is on record?
**A.** inactive: -0.97%

**Q.** Which inhibition does the source give for `CCN(CC)CC(O)COC(=O)C(O)(c1ccccc1)C1CCCCC1` (stereo not drawn) here?
**A.** inactive: -0.2%

**Q.** With `O=C(OCCCN1CCCC1)C(O)(c1ccccc1)C1CCCCC1` (stereo not drawn) as the compound, how does the inhibition read?
**A.** inactive: 4.86%

**Q.** `COc1ccccc1OP(C)(=O)Nc1c(C)n(C)n(-c2ccccc2)c1=O` (stereo not drawn) was tested. Which inhibition did it give?
**A.** inactive: -5.25%

**Q.** Which inhibition does the source give for `CCc1ccc(OP(C)(=O)Nc2cccnc2)cc1` (stereo not drawn) here?
**A.** inactive: 3.79%

**Q.** `CP(=O)(Oc1ccccc1)N1CCOC1=O` (stereo not drawn) was tested. Which inhibition did it give?
**A.** inactive: -4.95%

**Q.** How did the inhibition turn out when `COc1ccccc1OP(C)(=O)Nc1ccccc1Br` (stereo not drawn) was run?
**A.** inactive: 2.61%

**Q.** For `CC(C)(C)c1ccc(OP(C)(=O)O)cc1`, which inhibition is on record?
**A.** inactive: 3.85%

**Q.** How did the inhibition turn out when `CP(=O)(Nc1ccc(Cl)cc1)Oc1ccc(F)cc1` (stereo not drawn) was run?
**A.** inactive: -5.26%

**Q.** For `CN(C)C(=O)c1c([N+](=O)[O-])cc([N+](=O)[O-])cc1[N+](=O)[O-]`, which inhibition is on record?
**A.** inactive: 10.2%

**Q.** `CP(=O)(Nc1ccc(SC(F)(F)F)cc1)Oc1ccc(F)cc1` (stereo not drawn) was tested. Which inhibition did it give?
**A.** inactive: 1.5%

**Q.** Which inhibition does the source give for `CCOP(C)(=S)SCC(=O)NC(C)(CC)C(=O)O` (stereo not drawn) here?
**A.** inactive: 1.62%

**Q.** Which inhibition does the source give for `CP(=O)(Nc1ccc2c(c1)OCCO2)Oc1ccccc1` (stereo not drawn) here?
**A.** inactive: -5.46%

**Q.** For `Cc1ccccc1NP(C)(=O)Nc1ccccc1C`, which inhibition is on record?
**A.** inactive: 1.01%

**Q.** With `COc1ccc(OP(C)(=O)Nc2cccc(Br)c2)cc1` (stereo not drawn) as the compound, how does the inhibition read?
**A.** inactive: 1.27%

**Q.** With `CN(C)CCOC(=O)C(O)(c1ccccc1)C1CCCCC1` (stereo not drawn) as the compound, how does the inhibition read?
**A.** inactive: -4.31%

**Q.** For `COc1ccc(NP(C)(=O)Oc2ccccc2OC)cc1` (stereo not drawn), which inhibition is on record?
**A.** inactive: -2.04%

**Q.** `O=[N+]([O-])c1ccc(OP2(=O)COCCO2)cc1` (stereo not drawn) was tested. Which inhibition did it give?
**A.** inactive: 3.25%

**Q.** For `Cc1cc(-c2cccc3ccccc23)c(C)cn1.O=[N+]([O-])c1cc([N+](=O)[O-])c(O)c([N+](=O)[O-])c1`, which inhibition is on record?
**A.** inactive: 6.94%

**Q.** With `O=[N+]([O-])c1cc([N+](=O)[O-])c(NCC2CCS(=O)(=O)C2)c([N+](=O)[O-])c1` (stereo not drawn) as the compound, how does the inhibition read?
**A.** inactive: 5.99%

**Q.** Which inhibition does the source give for `CCOC(=O)c1ccc(NP(C)(=O)Oc2ccc(F)cc2)cc1` (stereo not drawn) here?
**A.** inactive: -7.06%

**Q.** With `COc1ccc(OP(C)(=O)Nc2ccc(SC(F)(F)F)cc2)cc1` (stereo not drawn) as the compound, how does the inhibition read?
**A.** inactive: 2.58%

**Q.** Which inhibition does the source give for `CCN(CC)CCCOC(=O)C(O)(c1ccccc1)C1CCCCC1` (stereo not drawn) here?
**A.** inactive: -4.04%

**Q.** With `CP(=O)(Nc1ccccc1)Oc1ccc(F)cc1` (stereo not drawn) as the compound, how does the inhibition read?
**A.** inactive: 0.54%

**Q.** With `CCCCCOc1ccc(NP(C)(=O)Oc2ccc(Cl)cc2Cl)cc1` (stereo not drawn) as the compound, how does the inhibition read?
**A.** inactive: -5.95%

**Q.** How did the inhibition turn out when `CP(=O)(Nc1ccccc1F)Oc1ccccc1` (stereo not drawn) was run?
**A.** inactive: 4.73%

**Q.** `CC(C)c1ccc(OP(C)(=O)Nc2ccc(SC(F)(F)F)cc2)cc1` (stereo not drawn) was tested. Which inhibition did it give?
**A.** inactive: 2.86%

**Q.** With `O=C(OC1CN2CCC1CC2)c1ccc([N+](=O)[O-])cc1` (stereo not drawn) as the compound, how does the inhibition read?
**A.** inactive: -0.16%

**Q.** Which inhibition does the source give for `O=C(OCCN1CCN(CCOCc2ccccc2)CC1)C(O)(c1ccccc1)c1ccccc1` here?
**A.** inactive: 0.73%
